Values quoted from earlier work in patent US20120016021A1, “METHODS OF TREATING FRAGILE X SYNDROME, DOWN'S SYNDROME, AUTISM AND RELATED DISORDERS” (XENOPORT, INC., priority 2010, published 2012).

Tested on: autistic children

For Cc1nc2n(c(=O)c1CCN1CCC(c3noc4cc(F)ccc34)CC1)CCCC2 [risperidone], the adverse events is given as “weight gain, increased appetite, fatigue, drowsiness, dizziness, and drooling”.
